# According to patent publication US6074845A (priority 1999, dated 2000):
# Protein sequences, listed by entry. Tags and fused reporters are not part of them. Residues count along the entry.
# UniProt A6QP74, 23-462: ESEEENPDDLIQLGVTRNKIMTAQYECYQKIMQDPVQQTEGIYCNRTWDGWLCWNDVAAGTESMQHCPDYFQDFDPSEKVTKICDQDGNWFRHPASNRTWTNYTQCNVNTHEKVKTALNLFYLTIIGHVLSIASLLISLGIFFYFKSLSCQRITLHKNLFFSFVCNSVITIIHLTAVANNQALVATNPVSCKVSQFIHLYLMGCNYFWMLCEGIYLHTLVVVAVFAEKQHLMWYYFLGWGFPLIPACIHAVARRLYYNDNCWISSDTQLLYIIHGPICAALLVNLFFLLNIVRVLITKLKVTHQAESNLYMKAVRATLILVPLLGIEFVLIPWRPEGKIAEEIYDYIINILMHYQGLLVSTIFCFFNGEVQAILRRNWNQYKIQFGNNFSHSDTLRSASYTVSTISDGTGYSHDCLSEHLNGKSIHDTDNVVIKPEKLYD
# Legend:
# [1] = target: T1, BECRLR (bovine calcitonin receptor-like receptor) (Bos taurus, UniProt A6QP74); assay: Competition binding, displacement of [125I] rADM from BECRLR membranes; conditions: [125I] rADM displacement, BE-CRLR membranes
# T1 construct: amplify the open reading frame of the novel bovine CRLR cDNA; expressed in transfected cells; also transient transfection
# Description: (§1) Cells from BECRLR-293 were scraped into ice-cold PBS and centrifuged for 10 min at 1000× g at 4° C. The pellet was resuspended in 10 mM Tris-HCl, pH 7.4, 10 mM Na-EDTA and homogenized using a Dounce ground glass homogenizer. The homogenate was centrifuged for 20 min at 12,000× g at 4° C. and the resultant membrane pellet was resuspended in 50 mM Tris-HCl, pH 7.4, 10 mM MgCl2 and recentrifuged. The final pellet was resuspended in 50 mM Tris-HCl, pH 7.4, 10 mM MgCl2 and assayed immediately.
# Saturation binding experiments were carried out using membranes prepared from BECRLR-293 cells pretreated in the absence or presence of ADM. The incubation mixture contained various concentrations of [^125 I] ADM (5 to 120 pM) and 40-60 μg of membrane protein in a final volume of 500 ul. Nonspecific binding was determined in the presence of 1 μM r ADM. After incubating for 30 min at 25° C., the reaction mixture was rapidly diluted with cold 0.9% NaCl and bound and free ligands were separated by filtration on glass fiber filters. […]
# (§2) HEK293 cells transiently transfected with this clone responded to CGRP and ADM […] by stimulating adenylyl cyclase activity (60-80% over basal). This clone has been stably expressed in HEK293 cells using the LipofectAMINE procedure and analyzed for CGRP and ADM-mediated adenylyl cyclase activity. […]
# [2] = target: T1, BECRLR (bovine calcitonin receptor-like receptor); assay: Inhibition of ADM-activated adenylyl cyclase activity (antagonism) in BECRLR-293 membranes; assay type: biochemical; conditions: BECRLR #8
# Description: as §1
# Membrane-bound adenylyl cyclase activity was determined. […] [^32 P]cAMP was separated using sequential chromatography as the rate of conversion of [(α^32 P]ATP to [^32 P]cAMP on Dowex and alumina columns (33). Adenylyl cyclase activities were determined in the absence (basal) or presence of various concentrations of rat ADM or hαCGRP (1 pM to 1 μM). The effect of ADM (22-52), ADM (26-52) and hαCGRP(8-37), on ADM-mediatedactivation of adenylyl cyclase was also determined.
# as §2
substance,measurement,setting,value
CGRP (8-37),"displacement of [125I] rADM binding, potency in words",[1],less potent
same,IC50,[2],2.2 µM
